In the library only some 1.2% were active in any assay of this set; here they are far more common.
Cneo AK release – Cryptococcus neoformans lysis via adenylate kinase release; 0.2% of 360,000 active; lysis activity, % at 15 µM; AID 651654; C. neoformans lysis, adenylate kinase release luminescence, 4 h; normalised: neutral wells 0, clomiphene wells 100;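 active = mean lysis activity across replicates of at least 80%, whatever share of replicates individually reach that level; inactive = mean lysis activity below 80%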
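Test system: log-phase Cryptococcus neoformans yeast cells; Quantity: yeast cell density of 5 × 10^6 cells/mL; Buffer or medium: YPD; Doses: single compound concentration per well; Timing: 4 h at 37 °C static, read 1 h later; Measured by: AK luminescence; Read-out basis: lysis from increased AK signal; Control set: Clomiphene as positive control.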
Glyco luc inh – blocks N-linked glycosylation in D54 reporter cells | D54 ERlucT glycosylation luciferase reporter, 24 h; percent of 100 nM tunicamycin response | reporter increase, % at 12.5 µM | 0.23% of 360,000 active | AID 588692;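 active = mean luciferase reporter signal, scaled so untreated is 0 and the glycosylation-blocking control 100, at or above a set limit in every replicate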;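 note: luciferase carries N-glycosylation sites so blocking glycosylation raises the light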
miR122 inh – blocks miR-122 activity in Huh7 sensor cells. Huh7 miR-122 Renilla luciferase sensor, 48 h; neutral wells = 0, positive control = 100. activation (reporter increase), % at 12.5 µM. 0.3% of 340,000 active;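 active = mean replicate activation score at least 90 and every replicate individually at or above 90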;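 note: higher luciferase means less miR-122 activity so hits act as miR-122 inhibitors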
Yeast UUG start – modulators of yeast start codon fidelity, primary screen, whole organism, S. cerevisiae, single point, plate reader; S. cerevisiae UUG-firefly luciferase reporter, luminescence/redox ratio; activity score, % at 18.7 µM; 0.13% of 350,000 active; AID 602363, 2012;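 active = replicate mean at a twofold rise or more, about +100% in these data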;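 also: firefly luciferase made from a UUG start codon reports start codon fidelity; reporter light over untreated wells divided by growth signal over untreated wells; some hits fall short of that in this replicate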
C2C12 statin – suppression of simvastatin myotoxicity; rescue of ATP level, % at 7.49 µM; C2C12 myotubes + simvastatin, ATP luminescence, 48 h; scaled: DMSO 0, geranylgeraniol control 100; 0.78% of 330,000 active;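 active = mean ATP rescue above about 67%, or every replicate alone reaching that limit, limit read from the data, passing the limit was not always enough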;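 note: myotubes were challenged with 10 µM simvastatin during compound exposure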
Large screens that a line does not name were inactive; [ ] = dose if it differs, or a comment.

C[C@H]1CN([C@@H](C)CO)C(=O)Cc2cc(NC(=O)CCC(F)(F)F)ccc2O[C@H]1CN(C)S(=O)(=O)c1ccc(Cl)cc1	Glyco luc inh 32
C[C@H]1CN([C@@H](C)CO)C(=O)c2cc(NS(=O)(=O)c3cccs3)ccc2O[C@H]1CN(C)S(=O)(=O)c1ccc(F)cc1	none (no result: Glyco luc inh, C2C12 statin)
Cc1ccc(OS(=O)(=O)c2ccccc2)c(/C=N/N=C2\NC(=O)C(C)S2)c1 (stereo not drawn)	C2C12 statin 134
COc1ccc(S(=O)(=O)NCc2csc(C)n2)cc1	C2C12 statin 142 (no result: Cneo AK release, Yeast UUG start)
Cn1c2c(c(=O)n(C)c1=O)C(CC(=O)Nc1ccccc1)C(=O)N2 (stereo not drawn)	C2C12 statin 133
Oc1ccc(Nc2nc3ccccc3nc2Nc2ccc(O)cc2)cc1	Glyco luc inh 50 (no result: C2C12 statin)
CCOc1c(S(=O)(=O)N2CCCC2)ccc(Cl)c1Cl	C2C12 statin 122
CCOc1ccc(S(=O)(=O)N2CCCC2)c2ccccc12	none (no result: miR122 inh)
CC(=O)Nc1ccc(S(=O)(=O)Oc2ccc(N3C(=O)C4CCCCC4C3=O)cc2)cc1 (stereo not drawn)	C2C12 statin 124
C[C@@H]1CN([C@@H](C)CO)C(=O)Cc2cc(NC(=O)Nc3cccc4ccccc34)ccc2O[C@@H]1CN(C)S(=O)(=O)c1cccs1	Cneo AK release 95 (no result: Glyco luc inh)
C[C@H]1CN([C@@H](C)CO)C(=O)Cc2cc(NC(=O)Nc3cccc4ccccc34)ccc2O[C@@H]1CN(C)S(=O)(=O)c1cccs1	none (no result: Glyco luc inh)
C[C@@H]1CN([C@@H](C)CO)C(=O)Cc2cc(NC(=O)Nc3cccc4ccccc34)ccc2O[C@@H]1CN(C)S(=O)(=O)c1ccc(Cl)cc1	C2C12 statin 95 (no result: Glyco luc inh)
O=C(/C=C/c1ccccc1)Nc1cccnc1Oc1ccccc1F	C2C12 statin 94
N#C[C@H]1[C@@H](c2ccc(C#CCC3CCCC3)cc2)[C@@H](CO)N1C(=O)c1ccccn1	Cneo AK release 111 (no result: Glyco luc inh, miR122 inh)
O=C(Cn1ccc2ccccc2c1=O)NCCC(=O)N1CCN(C(=O)c2ccco2)CC1	C2C12 statin 78
O=C(CN1C(=O)CSc2ccccc21)Nc1ccccc1C(=O)N1CCOCC1	C2C12 statin 90
C[C@@H]1CN([C@H](C)CO)C(=O)Cc2cc(NS(=O)(=O)c3ccccc3)ccc2O[C@H]1CN(C)S(=O)(=O)c1cccs1	none (no result: Glyco luc inh)
COc1ccc(S(=O)(=O)N2CCN(C(=O)CCc3c[nH]c4ccccc34)CC2)cc1	none (no result: miR122 inh)
Brc1ccc(-c2nn3c(Cc4ccccc4)nnc3s2)o1	C2C12 statin 72
Clc1ccccc1-c1nnc2sc(-c3ccc(Br)o3)nn12	none
CC(C(=O)NC(=O)NCc1ccccc1)N1C(=O)c2ccccc2C1=O (stereo not drawn)	C2C12 statin 96
CCCCC(C(=O)NC(=O)NCc1ccccc1)N1C(=O)c2ccccc2C1=O (stereo not drawn)	none
CC(C(=O)NCc1ccccc1)N1C(=O)C2CC=C(Cl)CC2C1=O (stereo not drawn)	none
CC(C(=O)NCc1ccccc1)N1C(=O)CN(C)C(=O)c2ccccc21 (stereo not drawn)	C2C12 statin 89
Cc1ccc(S(=O)(=O)Nc2ccc3c(c2)C(=O)N([C@H](C)CO)C[C@@H](C)[C@H](CN(C)C(=O)Nc2ccc(C(F)(F)F)cc2)O3)cc1	none (no result: Glyco luc inh)
Nc1ncnc2c1nc(N1CCCCC1)n2[C@@H]1O[C@H](CO)[C@@H](O)[C@H]1O	C2C12 statin 101
CCCCCCn1c(C(C)O)nc2ccccc21 (stereo not drawn)	C2C12 statin 111
CCCCn1c(C(C)NC(=O)c2cccs2)nc2ccccc21 (stereo not drawn)	C2C12 statin 135
CCCCCn1c(=O)c(C(=O)c2ccccc2)nc2ccccc21	C2C12 statin 121
Cc1occc1-c1nnc(SCC(=O)c2ccc(F)cc2)n1Cc1ccco1	none
O=C(CSc1nnc(-c2cc3ccccc3cc2O)n1Cc1ccco1)c1ccc(F)cc1	miR122 inh 231
Cc1ccc(OCc2nnc(SCC(=O)c3ccccc3)n2Cc2ccco2)cc1	C2C12 statin 77
C[C@@H]1CCCCO[C@H](CN(C)C(=O)Nc2ccc3c(c2)OCO3)[C@H](C)CN([C@@H](C)CO)C(=O)c2cc(NS(=O)(=O)c3ccc(F)cc3)ccc2O1	C2C12 statin 92 (no result: Glyco luc inh)
C[C@H](CO)N1C[C@H](C)[C@H](CN(C)C(=O)Nc2ccc3c(c2)OCO3)OCCCC[C@H](C)Oc2ccc(NS(=O)(=O)c3ccc(F)cc3)cc2C1=O	C2C12 statin 81 (no result: Glyco luc inh)
C[C@H]1CCCCO[C@@H](CN(C)C(=O)Nc2ccc3c(c2)OCO3)[C@@H](C)CN([C@@H](C)CO)C(=O)c2cc(NS(=O)(=O)c3ccc(F)cc3)ccc2O1	none (no result: Glyco luc inh)
CN(C)CCCN1C(=O)c2cccc3c(Br)ccc(c23)C1=O	Glyco luc inh 40 (no result: Cneo AK release, miR122 inh, Yeast UUG start, C2C12 statin)
O=C(O)CN1C(=O)c2cccc3c(Br)ccc1c23	none
Cc1ccc(-c2nc(CSCC(=O)NCCN3CCN(Cc4ccccc4)CC3)c(C)o2)cc1	miR122 inh 170
Cc1ccc(-c2nc(CSCC(=O)NCCCN3CCOCC3)c(C)o2)cc1	none
C[C@@H]1CN([C@@H](C)CO)C(=O)c2cccc(NC(=O)NC3CCCCC3)c2O[C@@H]1CN(C)Cc1ccc(Oc2ccccc2)cc1	none (no result: Glyco luc inh, C2C12 statin)
CC(C)NC(=O)Nc1cccc2c1O[C@H](CN(C)Cc1ccc(-c3ccccc3)cc1)[C@@H](C)CN([C@@H](C)CO)C2=O	C2C12 statin 66 (no result: Glyco luc inh)
COc1ccc(CN(C)C[C@H]2Oc3c(NC(=O)NC4CCCCC4)cccc3C(=O)N([C@H](C)CO)C[C@@H]2C)cc1	miR122 inh 255[16.7 µM] (no result: Glyco luc inh)
Cc1noc(C)c1NC(=O)Nc1cccc2c1O[C@H](CN(C)Cc1ccc(-c3ccccc3)cc1)[C@@H](C)CN([C@@H](C)CO)C2=O	C2C12 statin 98 (no result: Glyco luc inh)
CC(C)NC(=O)Nc1cccc2c1O[C@H](CN(C)S(=O)(=O)c1cn(C)cn1)[C@@H](C)CN([C@@H](C)CO)C2=O	none (no result: Glyco luc inh, C2C12 statin)
Cc1noc(C)c1NC(=O)N(C)C[C@@H]1Oc2ccc(NC(=O)Cc3cn(C)c4ccccc34)cc2CC(=O)N([C@@H](C)CO)C[C@@H]1C	none (no result: Glyco luc inh)
O=C(COC(=O)C1CCN(S(=O)(=O)c2cccc3cccnc23)CC1)c1ccc(F)cc1	C2C12 statin 96
Cc1ccc(NC(=S)N2CCN(C(=O)C3CCCO3)CC2)c(C)c1 (stereo not drawn)	C2C12 statin 100
COc1ccccc1CCC(=O)Nc1ccc2c(c1)c(=O)n(C)n2-c1cccs1	Glyco luc inh 34
Cc1cc(=O)oc(C)c1C(=O)NCCNC(=O)c1c(C)cc(=O)oc1C	C2C12 statin 121
O=C(Nc1c(C(=O)N2CCN(c3ccccn3)CC2)oc2ccccc12)c1ccc([N+](=O)[O-])cc1	miR122 inh 143
O=C(/C=C/c1cn(-c2ccccc2)nc1-c1cccnc1)c1ccco1	Glyco luc inh 32 (no result: Cneo AK release, miR122 inh, Yeast UUG start, C2C12 statin)
